{"source": "patent US6270979A", "about": "(priority 1998, dated 2001)", "key": {"[1]": {"tested_on": "Male ICR mice", "conditions": "mouse, in vivo"}, "[2]": {"tested_on": "opioid μ receptor", "format": "cell-based, human"}}, "note": "“Also recorded” adds a separate entry of the source."}
{"smiles": "CNCCNS(=O)(=O)c1cccc2cnccc12", "note": "[H8]", "values": [{"measurement": "effect on naloxone induced withdrawal jumping", "setting": "[1]", "result": "without effect on naloxone induced jumping"}, {"measurement": "reversal of morphine dependence", "setting": "[1]", "result": "but not H8"}, {"measurement": "effect on naloxone cAMP overshoot / formation of μ* when added with morphine pretreatment", "setting": "[2]", "result": "had no such effect; also recorded: fails to block μ* function"}, {"measurement": "effect on spontaneous cAMP overshoot induced by morphine pretreatment", "setting": "[2]", "result": "had some effects on the spontaneous cAMP overshoot"}]}
